# Test results taken from patent US11633413B2, “Composition for preventing or improving menopausal symptom comprising novel ginsenoside” (AMOREPACIFIC CORPORATION, priority 2019, dated 2023).
# By UniProt entry, the sequences of proteins in these tests, tags left out.
# UniProt Q92731, whole entry: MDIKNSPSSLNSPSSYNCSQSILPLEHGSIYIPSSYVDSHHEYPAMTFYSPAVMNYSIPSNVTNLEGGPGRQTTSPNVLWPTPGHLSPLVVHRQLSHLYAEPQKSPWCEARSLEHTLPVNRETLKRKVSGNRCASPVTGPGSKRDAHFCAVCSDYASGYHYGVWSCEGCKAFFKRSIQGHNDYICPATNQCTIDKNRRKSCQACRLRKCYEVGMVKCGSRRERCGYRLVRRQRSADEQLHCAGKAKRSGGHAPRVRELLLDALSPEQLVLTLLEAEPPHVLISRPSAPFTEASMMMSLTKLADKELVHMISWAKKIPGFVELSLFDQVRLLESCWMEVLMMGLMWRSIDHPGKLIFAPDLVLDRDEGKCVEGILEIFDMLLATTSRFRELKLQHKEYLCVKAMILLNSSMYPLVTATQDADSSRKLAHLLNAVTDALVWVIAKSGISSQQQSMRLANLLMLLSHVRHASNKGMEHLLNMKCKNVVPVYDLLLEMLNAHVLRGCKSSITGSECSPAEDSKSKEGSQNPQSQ
# Molecular target: estrogen receptor ERβ (Homo sapiens, UniProt Q92731)
# Experiment: human ERβ reporter assay (ERE-luc, Indigo Bioscience #IB00421-48P)
# Conditions: Test Example 1, 10 μg/mL for 24 hours, FIG. 12, FIG. 14
smiles,measurement,setting,value
"C[C@]12CC[C@@H]3c4ccc(O)cc4CC[C@H]3[C@@H]1CC[C@@H]2O [17β-estradiol, 17β-Estradiol, reference compound]",increase of the activity of the estrogen receptor ERβ,,superior effect of activating ERβ
same,increase of the activity of the estrogen receptor ERβ,listed as 173-estradiol,increases the activity of both ERα and ERβ
